ChEMBL document CHEMBL1795327, “Novel 4-phenylpiperidine-2,6-dione derivatives. Ligands for α₁-adrenoceptor subtypes” (Eur J Med Chem, 2011)

Target: T1, Alpha-1A adrenergic receptor (Homo sapiens, UniProt P35348)
T1 sequence (P35348 whole entry): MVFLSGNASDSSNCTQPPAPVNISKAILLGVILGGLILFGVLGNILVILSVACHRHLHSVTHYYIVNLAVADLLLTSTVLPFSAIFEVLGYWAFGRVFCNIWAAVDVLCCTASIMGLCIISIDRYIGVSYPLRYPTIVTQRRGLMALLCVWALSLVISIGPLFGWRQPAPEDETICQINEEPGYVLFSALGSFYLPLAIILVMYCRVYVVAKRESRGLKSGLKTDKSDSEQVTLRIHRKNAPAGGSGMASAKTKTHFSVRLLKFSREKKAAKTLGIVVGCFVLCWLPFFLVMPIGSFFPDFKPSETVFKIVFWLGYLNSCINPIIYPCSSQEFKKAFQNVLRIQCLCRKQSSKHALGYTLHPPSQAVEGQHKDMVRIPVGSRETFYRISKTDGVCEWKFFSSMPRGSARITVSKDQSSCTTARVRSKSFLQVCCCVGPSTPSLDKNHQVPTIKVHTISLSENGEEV
Test: Binding affinity to adrenergic alpha1A receptor

COc1ccccc1N1CCN(CCN2C(=O)CC3(CCCC3)CC2=O)CC1
Ki: 42.7 nM
